Sequences of proteins named here, by UniProt entry; tags and fusion partners are left off. A change or cut given only in a name is not applied to a line headed by its entry.
UniProt Q13255: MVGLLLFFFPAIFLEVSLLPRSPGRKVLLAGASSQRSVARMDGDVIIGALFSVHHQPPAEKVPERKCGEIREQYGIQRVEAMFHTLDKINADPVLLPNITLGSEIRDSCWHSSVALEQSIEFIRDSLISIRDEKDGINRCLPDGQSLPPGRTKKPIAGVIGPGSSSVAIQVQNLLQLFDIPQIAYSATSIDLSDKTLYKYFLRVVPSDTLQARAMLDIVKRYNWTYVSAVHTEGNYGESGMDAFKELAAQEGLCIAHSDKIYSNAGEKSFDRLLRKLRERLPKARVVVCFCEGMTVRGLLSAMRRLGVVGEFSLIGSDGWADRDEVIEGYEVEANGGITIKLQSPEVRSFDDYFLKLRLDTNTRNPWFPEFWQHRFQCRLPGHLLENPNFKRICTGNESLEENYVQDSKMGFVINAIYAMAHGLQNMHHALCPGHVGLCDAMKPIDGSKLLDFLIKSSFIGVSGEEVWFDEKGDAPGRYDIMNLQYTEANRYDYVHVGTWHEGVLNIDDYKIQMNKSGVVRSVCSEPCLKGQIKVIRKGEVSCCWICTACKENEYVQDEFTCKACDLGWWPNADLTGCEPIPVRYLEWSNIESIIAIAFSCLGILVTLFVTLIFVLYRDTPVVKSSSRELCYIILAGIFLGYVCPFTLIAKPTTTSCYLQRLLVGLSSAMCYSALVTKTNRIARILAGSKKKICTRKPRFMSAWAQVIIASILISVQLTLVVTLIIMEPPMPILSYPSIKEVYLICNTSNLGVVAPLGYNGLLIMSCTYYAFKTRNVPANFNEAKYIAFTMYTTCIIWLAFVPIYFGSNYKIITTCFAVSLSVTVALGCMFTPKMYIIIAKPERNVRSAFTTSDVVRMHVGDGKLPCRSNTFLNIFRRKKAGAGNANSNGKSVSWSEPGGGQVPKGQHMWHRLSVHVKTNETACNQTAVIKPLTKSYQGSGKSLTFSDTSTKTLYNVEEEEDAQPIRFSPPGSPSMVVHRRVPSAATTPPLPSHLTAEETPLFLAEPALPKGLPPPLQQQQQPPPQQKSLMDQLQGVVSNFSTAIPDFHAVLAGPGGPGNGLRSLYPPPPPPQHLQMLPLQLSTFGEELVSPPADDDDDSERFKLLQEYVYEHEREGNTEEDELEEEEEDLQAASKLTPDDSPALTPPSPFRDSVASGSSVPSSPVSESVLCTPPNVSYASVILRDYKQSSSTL

According to BindingDB's records for doi:10.1046/j.1471-4159.2000.0752590.x (F. Hoffmann-La Roche, 2000):

Molecular target: Metabotropic glutamate receptor 1 (Homo sapiens, UniProt Q13255)

## N[C@@H](Cn1oc(=O)[nH]c1=O)C(=O)O [2-amino-3-(3,5-dioxo[1,2,4]oxadiazolidin-2-yl)propionic acid]
  Ki: 10 nM
